Measured affinities in a library of Ab-14 light chain variants

All variants were tested on one target, the spike HR2 peptide PDVDLGDISGINAS (SARS-CoV-2).

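The starting antibody came from a phage panning campaign against this peptide. In library AAYL50, one, two or three CDR residues were substituted; doubles and triples were drawn at random. AlphaSeq pools MATa yeast showing the antibodies with MATalpha yeast showing the peptide. The frequency of each diploid, read from paired DNA barcodes, reflects how well the two displayed proteins bind. Read counts were normalised to the haploid input and turned into Kd by a linear fit to BCL2-family pairs of known affinity, for each replicate. Mating was done three times.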

Parent scFv Ab-14: VH joined to VL by a 15-residue (Gly4Ser)3 linker. Changes lie in the light chain CDRs alone.
VH: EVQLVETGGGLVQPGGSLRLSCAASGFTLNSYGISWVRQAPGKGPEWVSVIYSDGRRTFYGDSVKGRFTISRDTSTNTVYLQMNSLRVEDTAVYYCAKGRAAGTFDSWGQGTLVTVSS
VL: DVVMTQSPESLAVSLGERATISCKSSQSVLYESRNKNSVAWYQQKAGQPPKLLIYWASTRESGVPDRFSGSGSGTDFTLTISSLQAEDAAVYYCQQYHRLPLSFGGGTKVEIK

Changes read parent residue, position, new residue, counted from the first residue of the VL shown. Affinities are written as log10 Kd with Kd in nM; a lower number is a better binder. Averages over replicates are reported, and they cover detected replicates only. Where no diploid with the target was found in that replicate, the entry reads "n.d.": below detection, most likely a poor binder, though not proof of it. Background: pairings of library AAYL50 with three empty control strains gave a value in 18% of cases (median 4.19, 5th percentile 2.99). Values in that range, when seen in few replicates, are hard to tell from nonspecific mating. The control count says in how many pairings with the empty strains this scFv gave a signal, with their mean in brackets. In this assay the parent's reference entry averaged 0.65; its copy inside this library read 1.68.

changes	log10 Kd (nM) by replicate	mean log10 Kd (nM)	control signals
L30E S33V Q95S	4.53 / 3.45 / n.d.	3.99	4 of 9 (4.30)
V39W E61P Q95F	3.82 / 4.06 / n.d.	3.94	7 of 9 (4.00)
S26D S38I S103C	n.d. / n.d. / n.d.	n.d.	1 of 9 (4.16)
S33L S62T S103K	n.d. / n.d. / n.d.	n.d.	1 of 9 (4.32)
S28G Y31P K36F	0.53 / 0.74 / 0.67	0.65	0 of 9
K36V N37R Y97L	1.49 / 1.51 / 1.79	1.60	2 of 9 (4.42)
L30E R34P	0.41 / 0.61 / 0.65	0.56	1 of 9 (2.43)
S33C T59R	3.69 / n.d. / n.d.	3.69	2 of 9 (5.19)
Q27A S62F Q96E	3.88 / n.d. / n.d.	3.88	2 of 9 (3.41)
Q27Y W56A A57P	2.59 / 2.86 / 2.11	2.52	0 of 9
V29L S62G L102S	1.46 / 1.61 / 1.66	1.58	2 of 9 (4.26)
S25I L30W S58R	0.18 / 0.53 / 0.34	0.35	5 of 9 (4.70)
R99T L100D P101Q	n.d. / n.d. / n.d.	n.d.	3 of 9 (3.17)
S26Q A40K	n.d. / n.d. / n.d.	n.d.	1 of 9 (4.56)
K24Q A57L	0.82 / n.d. / n.d.	0.82	0 of 9
S26V S58G Q95C	n.d. / n.d. / 3.99	3.99	3 of 9 (4.73)
V29L N35Q L102N	0.29 / 0.67 / 0.46	0.47	2 of 9 (5.40)
L30S E32K P101M	n.d. / n.d. / n.d.	n.d.	0 of 9
L30C R34K	1.90 / 2.00 / 1.93	1.94	2 of 9 (5.01)
L30A R34N	2.32 / 2.19 / 1.78	2.10	0 of 9
E61V Y97A L100H	2.42 / 1.80 / 2.19	2.14	2 of 9 (2.96)
S103N	1.87 / 1.85 / 1.92	1.88	6 of 9 (4.54)
S33L L100C P101S	3.24 / 3.88 / n.d.	3.56	2 of 9 (4.17)
K24Q L30E A57K	4.10 / 3.62 / n.d.	3.86	2 of 9 (3.64)
K24S R60P	2.83 / 2.39 / 3.00	2.74	2 of 9 (3.84)
Y31H N37Q E61P	2.30 / 2.49 / 2.74	2.51	0 of 9
K24N S26Y E61P	n.d. / n.d. / 4.24	4.24	2 of 9 (3.20)
L30R Q95M H98S	4.08 / 4.20 / 4.00	4.09	1 of 9 (3.63)
Q96E S103G	0.54 / 0.79 / 0.58	0.64	1 of 9 (3.01)
S26K E32W Q95R	2.27 / 2.31 / 2.63	2.40	6 of 9 (4.60)
Q95C Q96M	n.d. / 4.31 / n.d.	4.31	3 of 9 (4.39)
S38Q A57H S62I	4.65 / 3.95 / n.d.	4.30	2 of 9 (4.71)
Q27T W56Q E61V	0.53 / 0.73 / 0.59	0.62	3 of 9 (4.79)
Q27A S28M E61N	1.54 / 1.53 / 1.70	1.59	1 of 9 (3.29)
V29H A40P H98F	n.d. / n.d. / n.d.	n.d.	0 of 9
N35H T59M L102R	n.d. / n.d. / 5.06	5.06	0 of 9
Q96L	n.d. / 3.03 / 2.97	3.00	0 of 9
E32W V39I Y97L	1.43 / 1.54 / 1.39	1.46	3 of 9 (4.14)
E32K V39G Q95G	6.04 / 4.07 / n.d.	5.05	0 of 9
R60N Q96W L100M	n.d. / n.d. / 4.56	4.56	1 of 9 (4.82)

From the list, the first 5 with no signal in any replicate:

{"changes": "S26D S38I S103C", "log10 Kd (nM) by replicate": "n.d. / n.d. / n.d.", "mean log10 Kd (nM)": "n.d.", "control signals": "1 of 9 (4.16)"}
{"changes": "S33L S62T S103K", "log10 Kd (nM) by replicate": "n.d. / n.d. / n.d.", "mean log10 Kd (nM)": "n.d.", "control signals": "1 of 9 (4.32)"}
{"changes": "R99T L100D P101Q", "log10 Kd (nM) by replicate": "n.d. / n.d. / n.d.", "mean log10 Kd (nM)": "n.d.", "control signals": "3 of 9 (3.17)"}
{"changes": "S26Q A40K", "log10 Kd (nM) by replicate": "n.d. / n.d. / n.d.", "mean log10 Kd (nM)": "n.d.", "control signals": "1 of 9 (4.56)"}
{"changes": "L30S E32K P101M", "log10 Kd (nM) by replicate": "n.d. / n.d. / n.d.", "mean log10 Kd (nM)": "n.d.", "control signals": "0 of 9"}

Data: MIT Lincoln Laboratory AlphaSeq set, Engelhart et al. 2022, doi:10.1038/s41597-022-01779-4, as distributed in FLAb.